## Apparent affinities of Ab-14 variants for a coronavirus HR2 peptide

The measurements come from Li et al. 2023 (doi:10.1038/s41467-023-39022-2) through the FLAb antibody collection.

Binding partner: SARS-CoV-2 spike HR2 peptide, sequence PDVDLGDISGINAS.

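The parent was found by panning a naive human phage display library on the peptide. Designed CDR sequences, proposed from the first random library and measured here. Group labels follow the data file (Ctrl: baseline library sampled from a position-specific scoring matrix, with some repeated check sequences; Rand: our label for a block that the file lists under HC and that is probably the random mutants of the ten best first-round binders; GP: Gaussian process model; GPLM: also part of the Gaussian process libraries; HC: hill climbing; Gen: genetic algorithm; Gibbs: Gibbs sampling; a sequence that several methods proposed may carry one label only). Affinity was read by AlphaSeq, a pooled yeast mating assay with surface-displayed partners. The frequency of each diploid, read from paired DNA barcodes, reflects how well the two displayed proteins bind. Scores were corrected for input abundance and mapped to Kd with protein pairs of known affinity run in the same pool. Each pool was mated in six replicate cultures.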

The variants keep the light chain, the linker and the frameworks of Ab-14 (scFv order VH, the linker GGGGSGGGGSGGGGS, VL).
VH: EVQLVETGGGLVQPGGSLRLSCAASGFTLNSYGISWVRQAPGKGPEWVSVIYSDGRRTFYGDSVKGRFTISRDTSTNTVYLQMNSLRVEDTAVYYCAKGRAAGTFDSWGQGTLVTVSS
VL: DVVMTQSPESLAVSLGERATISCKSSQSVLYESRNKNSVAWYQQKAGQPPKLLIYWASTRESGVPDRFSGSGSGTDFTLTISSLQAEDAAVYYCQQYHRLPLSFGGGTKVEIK

Each variant is given by its three heavy chain CDRs, as the data file delimits them; those of the parent are GFTLNSYGIS, VIYSDGRRTFYGDSVK, GRAAGTFDS. This list holds designs with at most six substitutions. Each Kd is an estimate from the mating assay, the geometric mean of the replicates in which the pair was seen; lower is stronger. "no signal" means that the variant was in the library but no mating with the target was seen in any replicate; the authors take this as a sign of poor binding, and no number exists. A sequence measured in both rounds can read differently, since the two assays cover different ranges. The authors' rule: three or more of the six replicates give a measured affinity, fewer mean a poor binder. The parent sequence was in this pool as ten entries: three were never detected, three once, and four in most replicates, with averages from 2.2 nM to 240 nM. As a blank, each scFv also met three strains without target: over all heavy chain designs, 1% of these pairings were detected, typically at 120 nM and seldom below 7.0 nM.

Variant GFGLNEYGIS / VIYSDGRRTFYGDSVK / GRHAGTFDS [GP_Gen] gave 9.0 nM (6 of 6 replicates). Variant GFTLESYGIS / VIYSDGRRTFIGDSVK / GTAAGTFDS [Ctrl] showed 2.4 nM (6 of 6 replicates). With GFSLNTYGIS / VIYSDGRRTFYADSVK / GRTAGTFDS [GPLM_Gen] the result was 9.5 nM (6 of 6 replicates). Variant GFTLNDYGIS / VIYSDGRRTFYGDSVK / GEAAGTFDK [GPLM_HC] gave 340 nM (6 of 6 replicates). Variant GFDLNSYGIS / VIYSDGRRTFYSDSVK / GEAAGTFDS [GPLM_Gen] showed 1.3 nM (6 of 6 replicates). Variant GFNLNSYGIS / VIYSDGRRTFYSDRVK / GEAAGTFDS [GP_Gibbs] gave 5.4 nM (6 of 6 replicates). With GFALNSYGIS / VIYSDGRRTYYGDSVK / GRAAGTFDS [Ctrl] the result was 37 nM (2 of 6 replicates). Variant GFDLLSYGIS / VIYSDGRRTFYGDSVK / GRAAGWANS [Rand] showed no signal (0 of 6 replicates). With GFNLNSYGIS / VIYADGLRTFYGDSVK / GRAAGTFDS [Ctrl] the result was no signal (0 of 6 replicates).

Variant GFPLNSYGIS / VIYSDGRRTFYVDSVK / GQLAGTFDS [GP_HC] showed 11 nM (1 of 6 replicates). With GFSLNSYGIS / VIYSDGRRTFYGDSVK / GKAAGTFDR [GPLM_Gen] the result was 58 nM (6 of 6 replicates). With GFTLNQYGIS / VIYSDGRRTFYSDAVK / GRAAGFFDS [Rand] the result was no signal (0 of 6 replicates). Variant GFDLNSYGIS / VIYSDGRRTFYVDSVK / GNVAGTFDS [GP_Gen] showed 240 pM (6 of 6 replicates). Variant GFTLNSYGIS / VIYADGRRTFYGDSVK / GKVAGTFDT [GPLM_Gibbs] showed 470 pM (6 of 6 replicates). For GFTLDSYGIS / VIYSDGRRTFYMDSVK / GRAAGTFDS [Ctrl], the assay gave 56 nM (4 of 6 replicates). Variant GFTLNSYGIS / VIYSDGRRTFYSDRVK / GEAAGTFDS [GPLM_Gen] showed 21 nM (6 of 6 replicates). Variant GFELNNYGIS / VIYSDGRRTFYSDSVK / GQAAGTFDS [GP_Gen] showed 5.5 nM (6 of 6 replicates). Variant GFTLNQYGIS / VIYADGRKTFYSDSVV / GRAAGGFDS [Ctrl] gave 470 nM (1 of 6 replicates).

Variant GFDLNMYGIS / VIYSDGRRKFYGDSVK / GRAAGTFDS [Ctrl] showed 2.7 nM (6 of 6 replicates). Variant GFDLNMYGIS / VIYSDGKRTFYGDSVK / GRTAGTFDS [GP_Gen] gave 1.5 nM (6 of 6 replicates). Variant GFQLNSYGIS / VIYSDGRRTFYGDKVK / GRAAGTFDS [Ctrl] gave 14 nM (3 of 6 replicates). Variant GFDLNSYGIS / VIYSDGRRTFYDDSVK / GKEAGTFDS [GP_Gen] gave 2.3 nM (6 of 6 replicates). For GFDLNSYGIS / VIYSDGRRTFYADKVK / GRTAGTFDS [GPLM_Gen], the assay gave 930 pM (6 of 6 replicates). Variant GFSLNSYGIS / VIYSDGRRTFYGDDVK / GQTAGTFDS [GPLM_Gen] showed 1.3 nM (2 of 6 replicates). For GFELNSYGIS / VIYSDGRRTFYADSVK / GRAAGTFDT [GP_Gen], the assay gave no signal (0 of 6 replicates). Variant GFDLNSYGIS / VIYSDGMRTFYVDSVK / GRSAGTFDS [GP_Gibbs] gave 210 nM (6 of 6 replicates). Variant GFNLNSYGIS / VIYSDGRRTFYIDSVK / GQVAGTFDA [GP_Gibbs] showed 5.8 nM (6 of 6 replicates).

Variant GFELNMYGIS / VIYSDGRRTFYSDSVK / GEAAGTFDS [GP_Gen] gave 13 nM (5 of 6 replicates). Variant GFDLNSYGIS / VIYSDGRRTFYGDEVK / GREAGTFDS [GP_Gibbs] showed 3.9 nM (6 of 6 replicates). For GFTLNSYGIS / VIYSDGRRTFYGDSVK / GPAAGTFDS [Ctrl], the assay gave no signal (0 of 6 replicates). With GFCLNSYGIS / VIYSDGRRTFYGDNFK / GRAAGTFFS [Ctrl] the result was no signal (0 of 6 replicates). Variant KFDLNSYGIS / VIYSDGRRTFYVDSVK / GRTAGTFDS [GP_Gen] gave 44 nM (3 of 6 replicates). For DFALESYGIS / VIYSDGRRTFYGDSVK / GRAAGTFDS [Ctrl], the assay gave 150 nM (3 of 6 replicates). With GFELNSYGIS / VIYSDGRRTFYADSVK / GTTAGTFDS [GPLM_Gibbs] the result was 980 pM (6 of 6 replicates). With GFDLNSYGIS / VIYSDGRRTFYQDKVK / GQAAGTFDS [GP_Gen] the result was 950 pM (6 of 6 replicates). Variant GFNLNSYGIS / VIYSDGRRTFYDDSVK / GQLAGTFDS [GP_HC] gave 3.7 nM (6 of 6 replicates).

For MFDLNSYGIS / VIYSDGRRTFYGDSVK / GEAAGTFDK [GP_Gibbs], the assay gave 7.6 nM (6 of 6 replicates). With GFTLQSYGIS / VIYSDGRRTFIGDSVK / VRLKTTFDS [Ctrl] the result was no signal (0 of 6 replicates). For GFVLNSYGIS / VIYSDGRRTFYADSVK / GQAAGTFDT [GPLM_Gen], the assay gave 61 nM (6 of 6 replicates). Variant GFTLNSYGIS / VIYSDGRRTSYGDQVK / GRAAGTFDS [Ctrl] gave 42 nM (2 of 6 replicates).

Repeated from above, the 5 best binders with a signal in all replicates:

CDR-H1	CDR-H2	CDR-H3	group	apparent Kd	detected
GFDLNSYGIS	VIYSDGRRTFYVDSVK	GNVAGTFDS	GP_Gen	240 pM	6/6
GFTLNSYGIS	VIYADGRRTFYGDSVK	GKVAGTFDT	GPLM_Gibbs	470 pM	6/6
GFDLNSYGIS	VIYSDGRRTFYADKVK	GRTAGTFDS	GPLM_Gen	930 pM	6/6
GFDLNSYGIS	VIYSDGRRTFYQDKVK	GQAAGTFDS	GP_Gen	950 pM	6/6
GFELNSYGIS	VIYSDGRRTFYADSVK	GTTAGTFDS	GPLM_Gibbs	980 pM	6/6